From patent US4554367A, “Phosphonium organohalogenostannates-IV” (priority 1982, dated 1985)

Tests used:
Assay type in all cases: cell-based
Pseudomonas aeruginosa = test: MIC against bacteria, strain B; conditions: 24 h, 30° C., tested at 100 or 300 mg/liter
Procedure: (§1) Determination of the minimum inhibitory concentration (MIC) against bacteria
(§2) ONCs (cultures incubated overnight) of the bacteria strains A-F grown in Caso-Peptone broth (Merck) are each diluted […] in saline. An amount of the suspension is introduced into Caso-Peptone broth such that the bacteria are again diluted 1:1,000. The cultures are treated with 100 or 300 mg/liter of the phosphonium stannates shown in Table B. After incubation at 30° C. in a shaking water bath for 24 hours, the cultures are evaluated on the basis of cloudiness. The MIC is the concentration at which the broth is not clouded by bacterial growth.

[1] = system: Alkaligenes denitrificans; test: MIC against bacteria, strain E; conditions: 24 h, 30° C., tested at 100 or 300 mg/liter
Procedure: as §1, §2

Alternaria alternata = test: MIC against fungi, strain J; conditions: malt extract agar
Procedure: (§3) Determination of the minimum inhibitory concentration (MIC) against fungi
(§4) The investigation is carried out in malt extract agar (Merck) by the known agar incorporation test using the fungi
(§5) For inhibition, the various compounds are in each case added in amounts such that concentrations of […] results in the agar. The concentrations (mg/liter) required for inhibition of the growth of the fungi (starting from traces of fungi dripped on) are illustrated in Table D.

Aspergillus phoenicia = test: MIC against fungi, strain H; conditions: malt extract agar
Procedure: as §3, §4, §5

Serratia marcenscens = test: MIC against bacteria, strain D; conditions: 24 h, 30° C., tested at 100 or 300 mg/liter
Procedure: as §1, §2

Proteus vulgaris = test: MIC against bacteria, strain A; conditions: 24 h, 30° C., tested at 100 or 300 mg/liter
Procedure: as §1, §2

Penicillium funiculosum = test: MIC against fungi, strain I; conditions: malt extract agar
Procedure: as §3, §4
I Penicillium funiculosum
as §5

Bacillus subtilis = test: MIC against bacteria, strain F; conditions: 24 h, 30° C., tested at 100 or 300 mg/liter
Procedure: as §1, §2

Endomyces geotrichum = test: MIC against fungi, strain M; conditions: malt extract agar
Procedure: as §3, §4, §5

Chaetomium globosum = test: MIC against fungi, strain O; conditions: malt extract agar
Procedure: as §3, §4, §5

Aspergillus niger = test: MIC against fungi, strain G; conditions: malt extract agar
Procedure: as §3, §4, §5

Candida albicans = test: MIC against fungi, strain L; conditions: malt extract agar
Procedure: as §3, §4, §5

Enterobacter aerogenes = test: MIC against bacteria, strain C; conditions: 24 h, 30° C., tested at 100 or 300 mg/liter
Procedure: as §1, §2

Chlorella vulgaris = test: Action against Chlorella vulgaris; parameters: key to Growth in the medium: 1: no growth in the medium, 3 ppm have a growthinhibiting action; key to Growth on the agar: 2: no growth on the agar, 3 ppm have destroyed the algae within 6 hours; conditions: 3 mg/liter; for Growth on the agar: 6 hours exposure (algae-destruction action); for Growth in the medium: 14 days (inhibition of growth)
Procedure: Determination of the action against algae
A Chlorella vulgaris culture grown for 14 days in algae nutrient medium is diluted 1:200 in algae nutrient medium. Each of the compounds listed in Table E is then added such that a concentration of 3 mg/liter results. After incubation for 6 hours, 10 μl are in each case withdrawn and dripped onto algae agar in order to determine the destructive action. After incubation for 14 days with illumination (14 hours light/10 hours dark cycle), the growth in the algae medium (determination of the inhibition of growth) on the algae agar (determination of the algae-destruction action) is evaluated visually.

Structure (SMILES) | MIC (Pseudomonas aeruginosa) | MIC [1] | MIC against fungi (Alternaria alternata) | MIC against fungi (Aspergillus phoenicia) | MIC (Serratia marcenscens) | MIC (Proteus vulgaris) | MIC against fungi (Penicillium funiculosum) | MIC (Bacillus subtilis) | MIC against fungi (Endomyces geotrichum) | MIC against fungi (Chaetomium globosum) | MIC against fungi (Aspergillus niger) | MIC against fungi (Candida albicans) | MIC (Enterobacter aerogenes) | Growth on the agar (Chlorella vulgaris) | Growth in the medium (Chlorella vulgaris)
CCCCCCCCCCCCCC[P+](CCCC)(CCCC)CCCC.[F][Sn-]([Cl])([c]1ccccc1)([c]1ccccc1)[c]1ccccc1 [Example 37] | 100 µg/mL | 100 µg/mL | 10 µg/mL | 10 µg/mL | 100 µg/mL | 100 µg/mL | 10 µg/mL | 100 µg/mL | 10 µg/mL | 10 µg/mL | 10 µg/mL | 10 µg/mL | 100 µg/mL | 2 | 1
CCCCCCCCCCCCCC[P+](CCCC)(CCCC)CCCC.CCC[CH2][Sn-]([F])([Cl])([CH2]CCC)[CH2]CCC [Example 27] | 100 µg/mL | 100 µg/mL | 10 µg/mL | 10 µg/mL | 100 µg/mL | 100 µg/mL | 10 µg/mL | 100 µg/mL | 10 µg/mL | 10 µg/mL | 10 µg/mL | 10 µg/mL | 100 µg/mL | 2 | 1
